Results reported in US20070213346A1, “Substituted 4-Alkyl-And 4-Alkanoyl-Piperidine Derivatives And Their Use As Neurokinin Antagonists” (priority 2004, published 2007).

By UniProt entry, the sequences of proteins in these tests, tags left out.
UniProt P25103, whole entry: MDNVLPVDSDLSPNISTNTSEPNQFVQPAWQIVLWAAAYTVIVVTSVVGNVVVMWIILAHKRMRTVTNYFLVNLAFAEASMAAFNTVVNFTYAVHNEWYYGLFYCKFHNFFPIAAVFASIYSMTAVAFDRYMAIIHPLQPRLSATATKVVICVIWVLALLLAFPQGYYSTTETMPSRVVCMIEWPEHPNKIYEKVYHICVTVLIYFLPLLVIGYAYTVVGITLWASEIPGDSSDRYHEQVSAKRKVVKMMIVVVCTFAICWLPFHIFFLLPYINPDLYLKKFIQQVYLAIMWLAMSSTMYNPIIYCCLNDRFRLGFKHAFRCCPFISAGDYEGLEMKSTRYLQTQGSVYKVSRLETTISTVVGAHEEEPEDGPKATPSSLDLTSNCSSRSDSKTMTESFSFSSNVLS
UniProt P29371, whole entry: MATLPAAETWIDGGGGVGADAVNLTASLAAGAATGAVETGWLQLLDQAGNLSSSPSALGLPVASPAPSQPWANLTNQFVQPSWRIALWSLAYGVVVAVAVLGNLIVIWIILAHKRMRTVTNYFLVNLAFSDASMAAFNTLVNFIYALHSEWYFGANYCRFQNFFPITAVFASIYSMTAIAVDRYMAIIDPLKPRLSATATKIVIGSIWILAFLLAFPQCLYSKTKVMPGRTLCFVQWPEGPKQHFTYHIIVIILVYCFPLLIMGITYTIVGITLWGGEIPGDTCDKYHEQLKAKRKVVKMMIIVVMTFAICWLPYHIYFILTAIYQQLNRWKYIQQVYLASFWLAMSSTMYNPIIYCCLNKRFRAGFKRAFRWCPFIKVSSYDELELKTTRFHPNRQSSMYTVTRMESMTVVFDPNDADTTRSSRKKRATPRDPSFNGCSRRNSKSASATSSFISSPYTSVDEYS

Key:
NK1 = NK1 (Homo sapiens, UniProt P25103); experiment: Signal transduction (ST), intracellular Ca++ FLIPR, NK1; type: cell-based; conditions: antagonist, Ca++ transient peak
Experimental: (§1) This test evaluates in vitro functional NK1 antagonistic activity. For the measurements of intracellular Ca^++ concentrations the cells were grown on 96-well (black wall/transparent bottom) plates from Costar for 2 days until they reached confluence. The cells were loaded with 2 μM Fluo3 in DMEM containing 0.1% BSA and 2.5 mM probenecid for 1 h at 37° C. They were washed 3× with a Krebs buffer (140 mM NaCl, 1 mM MgCl2x6H2O, 5 mM KCl, 10 mM glucose, 5 mM HEPES; 1.25 mM CaCl2; pH 7.4) containing 2.5 mM probenecid and 0.1% BSA (Ca^++-buffer). The cells were preincubated with a concentration range of antagonists for 20 min at RT and Ca^++-signals after addition of the agonists were measured in a Fluorescence Image Plate Reader (FLIPR from Molecular Devices, Crawley, England). The peak of the Ca^++-transient was considered as the relevant signal and the mean values of corresponding wells were analysed as described below.
The sigmoidal dose response curves were analysed by computerised curve-fitting, using the GraphPad program. The EC50-value of a compound is the effective dose showing 50% of maximal effect. For mean curves the response to the agonist with the highest potency was normalised to 100%. For antagonist responses the IC50-value was calculated using non-linear regression. […]

NK3 = NK3 (Homo sapiens, UniProt P29371); experiment: Signal transduction (ST), intracellular Ca++ FLIPR, NK3; type: cell-based; conditions: antagonist, Ca++ transient peak
Experimental: [The source words this procedure for another target and reports this target under the same test.] as §1
The sigmoidal dose response curves were analysed by computerised curve-fitting, using the GraphPad program. The EC50-value of a compound is the effective dose showing 50% of maximal effect. For mean curves the response to the agonist with the highest potency was normalised to 100%. For antagonist responses the IC50-value was calculated using non-linear regression.
The last columns indicates—without being limited thereto—for which use the compounds might be most suitable. Of course, since for some neurokinin receptors no data was determined, it is obvious that these compounds might be attributed to another suitable use.

| SMILES | NK1 pIC50 (NK1) | NK3 pIC50 (NK3) |
| --- | --- | --- |
| O=C(CC1CCN(C(=O)c2cc(C(F)(F)F)cc(C(F)(F)F)c2)[C@@H](Cc2ccccc2)C1)N1CCN(C2CCN(C(=O)c3c[nH]c4ccccc34)C2)CC1 (stereo partly shown) | 7.8 | 5.22 |
| O=C(CC1CCN(C(=O)c2cc(C(F)(F)F)cc(C(F)(F)F)c2)[C@@H](Cc2ccccc2)C1)N1CCN(C2CCN(C(=O)c3ccccc3F)C2)CC1 (stereo partly shown) | 7.25 | ˜5.45 |
| COc1cc(C(=O)N2CCC(N3CCN(C[C@@H]4CCN(C(=O)c5cc(C(F)(F)F)cc(C(F)(F)F)c5)[C@@H](Cc5ccccc5)C4)CC3)CC2)cc(OC)c1OC (relative stereo) | 6.64 |  |
| O=C(C1CC1)N1CCC(N2CCN(C[C@H]3CCN(C(=O)c4cc(C(F)(F)F)cc(C(F)(F)F)c4)[C@H](Cc4ccccc4)C3)CC2)CC1 | 7.04 | 5.41 |
